Literature values in patent US7071293B1, “Alpha helical peptides with broad spectrum antimicrobial activity that are insensitive to salt” (priority 1999, dated 2006).
Where two headings read alike, the source gives them in different places.

Test system: Staphylococcus coagulase f
Design: MIC90: unit not given beside the values
Settings: cited from earlier work; for Range: MIC range
[1] = Staphylococcus coagulase f (β-lactamase producer)

CC[C@H]1OC(=O)[C@H](C)[C@@H](O[C@H]2C[C@@](C)(OC)[C@@H](O)[C@H](C)O2)[C@H](C)[C@@H](O[C@@H]2O[C@H](C)C[C@H](N(C)C)[C@H]2O)[C@](C)(O)C[C@@H](C)C(=O)[C@H](C)[C@@H](O)[C@]1(C)O [ERYTHROMYCIN, erythromycin]
Range (Staphylococcus coagulase f (non β-lactamase producer)): 0.03–8 | Range [1]: 0.06–16 | MIC90 [1]: 4
